This data set deals with patients with relapsed or refractory multiple myeloma. Particulars: single agent ricolinostat, N=15.

The record followed here is article PMC5496796 (Clinical cancer research : an official journal of the …, 2017).

The structures appear in SMILES notation.

Turning to `O=C(CCCCCCNC(=O)c1cnc(N(c2ccccc2)c2ccccc2)nc1)NO` [ricolinostat], the “Diarrhea, Grade 3/4” value is reported as 0 (0) N (%) and the “Fatigue, Grade 3/4” value is 0 (0) N (%).
